Assay: Comparison of metal salts or conjugates hydro-acupuncture (water-carrier) preparation: pH value and clarity
Assay type: physicochemical
Details: 2.0 mg/ml in water, as dissolved
Procedure: Proper amount of different rhein or rhein-containing effective part metal salts or conjugates were put into a 10 ml volumetric flask, added with water, shaken and dissolved for constant volume, and then a water-carrier preparation was obtained. Rhein or rhein-containing effective part sodium salts or sylvan preparation are adjusted to the original pH with diluted hydrochloric acid and the results were shown in Table 4.

In the case of Rhein Arginine Conjugate, the PH value is reported as 6-7 and the clarity is reported as “clear”.

Source: patent US9181172B2, “Rhein conjugates, preparation method thereof and their uses in producing medicines for treating diabetic nephrosis, intestinal adhesion and osteoarthritis” (priority 2005, dated 2015)
